Measurements taken from ChEMBL document CHEMBL1123707.
This is a selection: effects in other tests are not listed, and their absence says nothing.

Test system: CCRF-CEM
Assay: In vitro growth inhibition against CCRF-CEM human lymphoblast cells

Compound: ClCC[Se][Se]CCCl
- IC50: 0.25 µM
